This test deals with MDCKII-ABCB1 cells. Briefly: XTT cytotoxicity, CDKi + DNR combination (Chou-Talalay). The format is cell-based. On the procedure:
1×10^4 MDCKII-ABCB1, 1×10^4 MDCKII parent, 2×10^4 HCT-8, or 2×10^4 HepG2 cells were grown in 96-well culture plates and incubated for 24 h. Individual CDKi diluted with growth medium were added to the exponentially growing cells and the resulting mixtures were incubated for 72 h at 37°C, 5% CO2. Cytotoxicity was then assessed using the XTT assay as follows: cells were incubated with 0.167 mg/mL XTT and 4 µM PMS in Opti-MEM for 2 h. The absorbance of the soluble formazan released was measured at 470 nm on a microplate reader (Tecan, Männedorf, Switzerland).
The combination index (CI) method of Chou-Talalay, based on the median-effect equation, was used to calculate combined drug effects. This approach offers quantitative definitions for additive, synergistic and antagonistic effects (CI values of 0.9–1.1, <0.9, and >1.1, respectively). Combination experiments were performed in a constant-ratio experimental design as recommended for the most efficient data analysis, and the generated data were used to quantify dose-reduction indices (DRI) for pairs of the tested drugs. DRI represents the fold-change of a focal effect when individual agents are used simultaneously relative to their separate effects, and their activity is synergistic if DRI > 1. […] The data acquired from these drug combination experiments were analyzed using CompuSyn ver. 3.0.1 software (ComboSyn Inc., Paramus, NJ, USA).

Where [1] appears, read: MDCKII-ABCB1, 72 h, DNR combined with Olomoucine II, ratio 1∶0.7.
The mark [2] stands for this setting: MDCKII-ABCB1, 72 h, DNR combined with Purvalanol A, ratio 1∶0.9.
[3] abbreviates: MDCKII-ABCB1, 72 h, DNR combined with Roscovitine, ratio 1∶0.8.

Values joined by “and” are separate entries in the source; they are usually repeats but may differ in a detail not shown here. Identical values can stand only once.

As to `COc1cccc2c1C(=O)c1c(O)c3c(c(O)c1C2=O)C[C@@](O)(C(C)=O)C[C@@H]3O[C@H]1C[C@H](N)[C@H](O)[C@H](C)O1` [DNR, daunorubicin], the “DRI at Fa 0.5, drug I (DNR)” value under setting [1] is recorded as 2.68±0.26; the “DRI at Fa 0.5, drug I (DNR)” value under setting [2] amounted to 3.76±0.07; the “DRI at Fa 0.5, drug I (DNR)” value under setting [3] is 3.06±0.03. In addition, the “DRI at Fa 0.75, drug I (DNR)” value is, setting by setting: under setting [1], 3.3 and 3.32±0.22; under setting [2], 4.6 and 4.56±0.07; under setting [3], 3.8 and 3.80±0.03. Further, the “DRI at Fa 0.9, drug I (DNR)” value was found to be 4.12±0.21 under setting [1], 5.54±0.06 under setting [2] and 4.72±0.05 under setting [3].
Consider `CC[C@H](CO)Nc1nc(NCc2ccccc2)c2ncn(C(C)C)c2n1` [roscovitine], for which the “Combination index (CI) category, combination with DNR” value is on record as “synergistic category of drug combination effects across almost the whole fraction of cells affected (Fa) range”. For the same compound, the “DRI at Fa 0.5, drug II (CDKi)” value (MDCKII-ABCB1, 72 h, CDKi combined with DNR at constant ratio) is 3.20±0.03.

The values are drawn from article PMC3871618, “Purvalanol A, Olomoucine II and Roscovitine Inhibit ABCB1 Transporter and Synergistically Potentiate Cytotoxic Effects of Daunorubicin In Vitro” (PLoS ONE, 2013).
